Test results from PMC4860837, “Structural basis for Sfm1 functioning as a protein arginine methyltransferase” (Cell Discovery, 2015).

Biological target: human ribosomal protein S3 (purified recombinant, used in analytical gel filtration) (human) (UniProt P23396)
Assay: SEC; analytical gel filtration, Superdex 200 10/30, 20 mM Tris-HCl pH 8.0, 300 mM NaCl, 0.5 ml/min; proteins alone (Sfm1 with or without SAH) or Sfm1 and human S3 mixed at 1:1 molar ratio; peak analysed by SDS-PAGE; apparent molecular weights

A stoichiometry N of 2 was found for “human ribosomal protein S3 (purified recombinant, used in analytical gel filtration) (from UniProt P23396 1-243) (natural protein)” in this work.
